Results published in article PMC10974275, “Pharmacokinetic Interaction of Kratom and Cannabidiol in Male Rats” (Pharmaceutics, 2024).

Columns and labels:
[1] = Single-dose pharmacokinetics of concomitant cannabidiol product and kratom product; type: in vivo, male Sprague-Dawley rats; conditions: minor kratom alkaloid/metabolite in plasma, n = 5, mean ± SEM
Protocol: Male Sprague-Dawley rats (weight 250 ± 25 g) were obtained from Envigo (Indianapolis, IN, USA) with indwelling jugular vein catheters. Animals were acclimated for ≥72 h in a temperature- and humidity-controlled vivarium on a 12 h light/dark cycle. All studies were approved by the University of Florida’s Institutional Animal Care and Use Committee (IACUC) and carried out in accordance with Association for Assessment and Accreditation of Laboratory Animal Care International (AAALAC) and National Institute of Health (NIH) guidelines. In the single-dose studies, rats were fasted for 10 h prior to dosing and an additional 2 h post-dose.
For the single-dose study, rats were pretreated with 50 mg/kg cannabidiol by oral gavage and, after 30 min, were dosed with 0.8 mL/kg OPMS Gold solution. A period of 30 min was observed between doses to reduce the likelihood of interactions between the formulations in the stomach. Rats were connected to an automatic blood collection system (BASi, West Lafayette, IN, USA), and blood samples were taken pre-kratom product dose and 0.08, 0.17, 0.25, 0.5, 1, 2, 3, 4, 6, 8, 12, 18, 24, 30, 36, 42, and 48 h after kratom product dose administration. […]
Samples were analyzed using previously validated ultraperformance liquid chromatography-tandem mass spectrometry (UPLC-MS/MS) methods for the quantification of cannabinoids and alkaloids in rat plasma. […]
For the cannabinoid bioanalytical method, a 1.7 µm, 2.1 x 100 mm C18 BEH column was utilized with a pre-column of the same chemistry (Waters, Milford, MA, USA) held at 40 °C. […] Cannabidiol was detected in positive electrospray ionization mode using multiple reaction monitoring.
For the peak separations of kratom alkaloids required for quantification, a 1.7 µm, […] × 100 mm C18 BEH column with a pre-column of the same chemistry (Waters, Milford, MA, USA) was utilized and held at 50 °C throughout the analysis. […] The alkaloids were detected in positive electrospray ionization mode using multiple reaction monitoring. […]

[2] = set-up: method as in PMID 33620222; conditions: minor kratom alkaloid/metabolite in plasma; single oral dose of kratom product alone; n = 4; mean ± SEM; cited from earlier work
[3] = set-up: method as in PMID 31838282; conditions: cited from earlier work

## corynantheidine
[1]
  AUC0–24: 195.9 ± 111.1 ng·h/mL
  Cmax: 12.9 ± 2.0 ng/mL
  Tmax: 12.6 ± 11.4 h
[2]
  AUC0–24: 30.4 ± 9.1 ng·h/mL
  Cmax: 3.1 ± 0.5 ng/mL
  Tmax: 3.1 ± 1.7 h
[3]
  oral bioavailability: 50%

Read-outs that look alike come from different tables or passages of the source.
